The text below walks through data of PubChem BioAssay AID463254 (National Center for Advancing Translational Sciences (NCATS), 2010).

By UniProt entry, the sequences of proteins in these tests, tags left out.
UniProt O75604, whole entry: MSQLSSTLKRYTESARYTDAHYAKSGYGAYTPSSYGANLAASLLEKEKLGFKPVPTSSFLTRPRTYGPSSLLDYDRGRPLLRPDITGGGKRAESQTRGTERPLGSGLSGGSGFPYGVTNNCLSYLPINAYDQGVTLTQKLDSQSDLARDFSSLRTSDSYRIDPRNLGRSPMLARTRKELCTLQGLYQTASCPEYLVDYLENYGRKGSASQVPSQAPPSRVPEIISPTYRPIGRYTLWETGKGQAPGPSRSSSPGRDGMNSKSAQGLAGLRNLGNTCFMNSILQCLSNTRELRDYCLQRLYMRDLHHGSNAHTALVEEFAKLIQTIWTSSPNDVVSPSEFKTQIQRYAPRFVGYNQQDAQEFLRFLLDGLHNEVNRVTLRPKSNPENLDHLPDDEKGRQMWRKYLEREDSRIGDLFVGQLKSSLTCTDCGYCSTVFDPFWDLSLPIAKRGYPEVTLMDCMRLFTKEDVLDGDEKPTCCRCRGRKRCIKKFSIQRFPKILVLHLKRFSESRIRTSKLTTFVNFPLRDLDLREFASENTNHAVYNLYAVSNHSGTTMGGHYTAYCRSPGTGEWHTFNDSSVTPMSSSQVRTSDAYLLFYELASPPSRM

Structures are written as SMILES. The entries are a selection whose mix differs from that of the whole data set. The source made the active and inactive calls. Calls come from the whole dose curve; as a rule, active = well fitted inhibition curve with a large enough effect; inconclusive = small, poorly fitted or top-dose-only effect, or effect the other way; inactive = flat fitted curve, though single readings scatter.

In this assay the target is Ubiquitin carboxyl-terminal hydrolase 2 (Homo sapiens) (UniProt O75604). The assay can be described thus: qHTS Assay for Inhibitors of Ubiquitin-specific Protease USP2a Using CHOP2 as the Reporter.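 Note: plate controls were DMSO wells for no effect and full inhibition by NEM control for full effect.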 The note with it: USP2 core, Ub-CHOP2 coupled fluorogenic reporter, 485/531; at 38.3 µM (top of the series). The text has this:
NIH Molecular Libraries Screening Centers Network [MLSCN] NIH Chemical Genomics Center [NCGC] MLSCN Grant: XO1-MH079852-01 PI Name: Nicholson, Ben. Progenra Inc, Malvern, PA NCGC Assay Overview: Homeostasis of cellular proteins is maintained through a combination of synthesis and degradation. The pathway that accounts for the majority of protein degradation is the ubiquitin-proteasomal pathway. Ubiquitin (Ub) is highly conserved in all cells and the generation of a multi-Ub chain typically targets proteins for degradation by the proteasome. However, ubiquitination is highly reversible and dynamic. Deubiquitination, the reverse process, is catalyzed through the action of enzymes referred to as isopeptidases or deubiquitinating enzymes (DUBs). This group of enzymes is collectively responsible for maintaining adequate pools of free ubiquitin and regulating the ubiquitination status of cellular proteins. The class of DUBs referred to as the ubiquitin-specific proteases (USP) family functions endoproteolytically to cleave Ub chains from a wide range of protein substrates. USP2a deubiquitinates fatty acid synthase (FASN) which has recently been identified as an emerging oncology target. To identify inhibitors of USP2a a cell-free assay was employed. […] The reporter enzyme chosen is an enterokinase called CHOP2, which is activated when the Ub is cleaved by USP2. The free and now activated reporter can subsequently act on its reporter substrate. Thus, this coupled assay gives a fluorescent read-out at excitation/emission wavelengths of 485/531. The assay was developed by Progenra, Inc. and has been licensed for sale by LifeSensors, Inc. as Ub-CHOP2-Reporter-Kit (#PR1101).
NCGC Assay Protocol Summary: The assay buffer, prepared fresh at the day of the assay, contains 20mM Tris-HCl pH 8.0, 2mM CaCl2, 2mM beta-Mercaptoethanol, 0.05% CHAPS. 3ul of 20nM (10nM final) USP2 core, which is stored on ice, is dispensed into a medium-binding black solid Kalypsys 1,536 well plate using the Kalypsys dispenser. The assay plate is then pinned with 23nL compound with the Kalypsys pintool in columns 5-48. The controls are pinned as follows: column 1 two-fold dilutions of 2M NEM in duplicate; column 2 2M NEM (final concentration 38.2mM); column 3&4 DMSO. The assay plate is incubated at RT for 30min. Subsequently, 1.5uL of 100nM (25nM final) Ub-CHOP2 and 1.5uL of 100nM (25nM final) Reporter Substrate (both stored on ice and protected from light) were dispensed into the plate using the Kalypsys dispenser. Plates were read after 60min RT incubation on a ViewLux (Perkin Elmer) plate reader using the following wavelengths Ex 485nm /Em 531nm. Data were normalized to the to AC100 inhibition (NEM). Concentration-response curves were fitted to the normalized data and the concentration-response curves were then classified based on curve quality (r2), response magnitude and degree of measured activity. The time zero reading was used to flag fluorescence artifacts. Keywords: ubiquitination, deubiquitination, proteases, profluorescent, MLSMR, MLPCN, NIH Roadmap, qHTS, NCGC
(In general: qHTS replaces the single test concentration by a dilution series.)
Consider `O=[N+]([O-])c1cc([N+](=O)[O-])c(Nc2ccccn2)c([N+](=O)[O-])c1`, for which the activity change, negative = inhibition is inactive: 5.6%.

As to `Cc1c(NP(C)(=O)Oc2ccc(C(C)C)cc2)c(=O)n(-c2ccccc2)n1C` (stereo not given), the activity change, negative = inhibition is inactive: -1.38%.

As for `CP(=O)(Nc1ccccn1)Oc1ccccc1` (stereo not given), the activity change, negative = inhibition is inactive: -0.768%.

Turning to `COc1ccccc1OP(C)(=O)Nc1ccc(C)cc1C` (stereo not given), the activity change, negative = inhibition was inactive: 1.49%.

Consider `CCc1ccc(OP(C)(=O)O)cc1`, for which the activity change, negative = inhibition is inactive: 1.91%.

Take `Cc1cc(C)cc(OP(C)(=O)Nc2cccc(C(F)(F)F)c2)c1` (stereo not given): the activity change, negative = inhibition is inactive: 8.72%.

On to `COc1ccccc1OP(C)(=O)Nc1ccc(C)c(C)c1` (stereo not given), for which the activity change, negative = inhibition was inactive: 0.816%.

Regarding `COc1ccc(OP(C)(=O)Nc2ccccc2Br)cc1` (stereo not given), the activity change, negative = inhibition is inactive: 0.458%.

For `Cc1nc2ccc3ccccc3c2o1.O=[N+]([O-])c1cc([N+](=O)[O-])c(O)c([N+](=O)[O-])c1`, the activity change, negative = inhibition was inactive: -5.07%.

As for `CP(=O)(OCCOc1ccccc1)OCCOc1ccccc1`, the activity change, negative = inhibition was inactive: 3.32%.

As for `CP(=O)(Nc1ccc(Cl)cc1Cl)Oc1ccccc1` (stereo not given), the activity change, negative = inhibition is inactive: 2.35%.

Consider `CCOC(=O)c1ccc(NP(C)(=O)Oc2ccc(Cl)cc2)cc1` (stereo not given), for which the activity change, negative = inhibition is inactive: 2.1%.

As for `CP(=O)(OC12CC3CC(CC(C3)C1)C2)OC12CC3CC(CC(C3)C1)C2`, the activity change, negative = inhibition is inactive: -3.32%.

For `CCN(CC)CC(O)COC(=O)C(O)(c1ccccc1)C1CCCCC1` (stereo not given), the activity change, negative = inhibition was inactive: -0.455%.

Take `COc1ccc(OP(C)(=O)Nc2ccc(Br)cc2)cc1` (stereo not given): the activity change, negative = inhibition was inactive: 0.14%.

Regarding `COc1ccccc1OP(C)(=O)Nc1c(C)n(C)n(-c2ccccc2)c1=O` (stereo not given), the activity change, negative = inhibition is inactive: -0.0136%.

With `O=C(OCCCN1CCCC1)C(O)(c1ccccc1)C1CCCCC1` (stereo not given), the activity change, negative = inhibition was inactive: -2.63%.

Regarding `CP(=O)(Oc1ccccc1)N1CCOC1=O` (stereo not given), the activity change, negative = inhibition is inactive: 1.04%.

For `CCc1ccc(OP(C)(=O)Nc2cccnc2)cc1` (stereo not given), the activity change, negative = inhibition was inactive: -0.99%.

Regarding `CC(C)(C)c1ccc(OP(C)(=O)O)cc1`, the activity change, negative = inhibition was inactive: 0.578%.

As for `COc1ccccc1OP(C)(=O)Nc1ccccc1Br` (stereo not given), the activity change, negative = inhibition was inactive: 0.325%.

Consider `CP(=O)(Nc1ccc(Cl)cc1)Oc1ccc(F)cc1` (stereo not given), for which the activity change, negative = inhibition was inactive: -1.29%.

Consider `CN(C)C(=O)c1c([N+](=O)[O-])cc([N+](=O)[O-])cc1[N+](=O)[O-]`, for which the activity change, negative = inhibition is inactive: -5.19%.

For the molecule `CP(=O)(Nc1ccc(SC(F)(F)F)cc1)Oc1ccc(F)cc1` (stereo not given), the activity change, negative = inhibition was inactive: 4.69%.

`CCOP(C)(=S)SCC(=O)NC(C)(CC)C(=O)O` (stereo not given): the activity change, negative = inhibition is inactive: -0.0623%.

`CP(=O)(Nc1ccc2c(c1)OCCO2)Oc1ccccc1` (stereo not given): the activity change, negative = inhibition is inactive: -10.8%.

For `Cc1ccccc1NP(C)(=O)Nc1ccccc1C`, the activity change, negative = inhibition was inactive: 1.32%.

For the molecule `COc1ccc(OP(C)(=O)Nc2cccc(Br)c2)cc1` (stereo not given), the activity change, negative = inhibition was inactive: 2.56%.

Take `CN(C)CCOC(=O)C(O)(c1ccccc1)C1CCCCC1` (stereo not given): the activity change, negative = inhibition was inactive: 0.712%.

As to `COc1ccc(NP(C)(=O)Oc2ccccc2OC)cc1` (stereo not given), the activity change, negative = inhibition was inactive: 0.996%.

On to `O=[N+]([O-])c1ccc(OP2(=O)COCCO2)cc1` (stereo not given), for which the activity change, negative = inhibition is inactive: -1.07%.

Turning to `Cc1cc(-c2cccc3ccccc23)c(C)cn1.O=[N+]([O-])c1cc([N+](=O)[O-])c(O)c([N+](=O)[O-])c1`, the activity change, negative = inhibition was inactive: -1.01%.

For the molecule `CCOC(=O)c1ccc(NP(C)(=O)Oc2ccc(F)cc2)cc1` (stereo not given), the activity change, negative = inhibition is inactive: 2.87%.

With `COc1ccc(OP(C)(=O)Nc2ccc(SC(F)(F)F)cc2)cc1` (stereo not given), the activity change, negative = inhibition is inactive: -5.13%.

Consider `CCN(CC)CCCOC(=O)C(O)(c1ccccc1)C1CCCCC1` (stereo not given), for which the activity change, negative = inhibition is inactive: 0.0281%.

With `CP(=O)(Nc1ccccc1)Oc1ccc(F)cc1` (stereo not given), the activity change, negative = inhibition was inactive: -1.08%.

`CCCCCOc1ccc(NP(C)(=O)Oc2ccc(Cl)cc2Cl)cc1` (stereo not given): the activity change, negative = inhibition was inactive: -13.1%.

Consider `CP(=O)(Nc1ccccc1F)Oc1ccccc1` (stereo not given), for which the activity change, negative = inhibition is inactive: -0.329%.

Take `CC(C)c1ccc(OP(C)(=O)Nc2ccc(SC(F)(F)F)cc2)cc1` (stereo not given): the activity change, negative = inhibition was inactive: -1.4%.

Take `O=C(OCCN1CCN(CCOCc2ccccc2)CC1)C(O)(c1ccccc1)c1ccccc1`: the activity change, negative = inhibition is inactive: 0.803%.
